Experimental data reported in patent US20230009539A1 (CLEVELAND CLINIC FOUNDATION, published 2023).

Biological target: T1, FLAG-tagged mouse wild-type Act1 (WT) (mouse, UniProt Q8N7N6 1-555)
T1 construct: also called flag-tagged mAct1; flag-Act1; not shown: FLAG tag
T1 sequence (looked up): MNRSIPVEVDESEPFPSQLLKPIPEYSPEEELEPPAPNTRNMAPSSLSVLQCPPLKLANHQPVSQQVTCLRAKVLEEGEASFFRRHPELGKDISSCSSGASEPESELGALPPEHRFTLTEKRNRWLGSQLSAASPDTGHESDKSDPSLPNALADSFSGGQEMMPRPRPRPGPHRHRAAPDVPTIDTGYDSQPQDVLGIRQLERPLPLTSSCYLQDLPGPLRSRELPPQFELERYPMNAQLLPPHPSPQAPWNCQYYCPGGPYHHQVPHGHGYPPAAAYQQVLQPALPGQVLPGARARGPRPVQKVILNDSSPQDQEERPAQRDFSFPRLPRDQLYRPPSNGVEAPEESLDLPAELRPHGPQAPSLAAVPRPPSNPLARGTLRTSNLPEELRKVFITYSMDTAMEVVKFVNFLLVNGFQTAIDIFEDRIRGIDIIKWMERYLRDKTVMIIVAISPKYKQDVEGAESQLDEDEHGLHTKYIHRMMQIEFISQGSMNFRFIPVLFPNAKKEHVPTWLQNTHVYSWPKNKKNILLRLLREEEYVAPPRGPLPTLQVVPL
Assay: co-immunoprecipitation with anti-FLAG from Act1-/- MEFs reconstituted with FLAG-Act1 WT, IL-17 lanes 0, .5, 1, 2, 3 (sheet prints 'min'), Western blot
Source text: Data represent mean±SD; **, p<0.01. F. In situ PLA assay in HeLa cells transfected with the indicated expression constructs. Primary mouse antibodies against Flag-tag and rabbit antibodies against HA-tag were used. The red dots indicate the interaction of the two proteins including Dcp1-Flag/Act1-HA, IL-17-RA-Flag/Act1-HA, HuR-Flag/Act1-HA and SF2-Flag/Act1-HA. The co-transfection of IRAK1-Flag and Act1-HA was used as a negative control for PLA assay. Nuclei stained with DAPI. The expression levels of the transfected constructs were also analyzed by western analyses shown below the imaging data. […] Data represent mean±SD; **, p<0.01. […] The quantification is based on the analysis of over 50 expressing cells, followed by two-tailed Student's t-test. Data represent mean±SD; *, p<0.05, **, p<0.01. I. Act1−/−MEFs reconstituted by retroviral infection with either FLAG-tagged mouse wild-type Act1 (WT) or SEFIR1 deletion mutant were treated with IL-17 (50 ng/ml) for the indicated times. The cell lysates were immunoprecipitated (IP) with anti-FLAG followed by Western blot analysis using antibodies as indicated. Data are representative of two independent experiments. […]

binding result: binds
B1: SF2 (endogenous, MEFs) (other, mouse (MEFs), UniProt Q6PDM2 2-248, looked up)
chain: SGGGVIRGPAGNNDCRIYVGNLPPDIRTKDIEDVFYKYGAIRDIDLKNRRGGPPFAFVEFEDPRDAEDAVYGRDGYDYDGYRLRVEFPRSGRGTGRGGGGGGGGGAPRGRYGPPSRRSENRVVVSGLPPSGSWQDLKDHMREAGDVCYADVYRDGTGVVEFVRKEDMTYAVRKLDNTKFRSHEGETAYIRVKVDGPRSPSYGRSRSRSRSRSRSRSRSNSRSRSYSPRRSRGSPRYSPRHSRSRSRT
